In the library only some 1.3% were active in any assay of this set; here they are far more common.
S100A4 MyoIIA – blocks human S100A4 binding to myosin IIA peptide; actives 0.14% (n = 360,000); inhibition, % at 10.7 µM; S100A4/TAMRA-MyoIIA peptide fluorescence polarization; P26447;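 active means mean inhibition of at least 70% across replicates, with every replicate also reaching that level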
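Test system: S100A4 monomer protein; Medium: HEPES pH 7.2 with CaCl2, KCl, NaCl, DTT, Triton; Probe or stimulus: TAMRA-labelled myosin IIA heavy-chain peptide probe, 5 nM; Doses: one dose per compound; Times: polarization read 5 min after assay mix addition, stable 5–60 min; Benchmarks: neutral control DMSO, positive control TFP.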
Yeast UUG start – yeast start codon fidelity modulation; AID 602363; activity score, % at 18.7 µM; S. cerevisiae UUG-firefly luciferase reporter, luminescence/redox ratio; 0.13% of 350,000 active;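 active means replicate mean at a twofold rise or more, about +100% in these data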;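 further: firefly luciferase made from a UUG start codon reports start codon fidelity; reporter light over untreated wells divided by growth signal over untreated wells; some hits fall short of that in this replicate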
ARNT-TACC3 inh – ARNT/TACC3 interaction disruption; Q9Y6A5; AlphaScreen His-ARNT PAS-B/GST-TACC3 binding, luminescence; TACC3 fragment carries E629A point mutation; inhibition, % at 9.99 µM; actives 0.66% (n = 390,000);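 active means mean inhibition of replicates at least 50% and at least half of replicates each reaching 50%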;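 further: 0% = complete ARNT plus TACC3 wells and 100% = ARNT alone without TACC3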
ERAP1 inh – ERAP1 (human) enzyme inhibition; actives 0.15% (n = 340,000); recombinant ERAP1, Leu-AMC fluorescence, 60 min; Q9NZ08; AID 652197; inhibition, % at 10.7 µM;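 active means mean replicate inhibition of at least 30%, or all replicates individually reaching that 30% level; inactive means mean below 30% and not every replicate reaching it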;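 further: 0% = neutral control wells and 100% = L-leucinethiol positive control wells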
E-sel inducer – E-selectin induction on HUVECs | actives 0.37% (n = 260,000) | activation, % at 7.58 µM | HUVEC E-selectin immunofluorescence imaging; normalized: neutral wells 0, TNF-alpha wells 100;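 active means mean E-selectin-positive cell signal at least 10% of the positive control, reached in at least 60% of replicates, without over 20% cell loss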
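Read-out basis: % PE-positive cells; Test system: HUVEC primary endothelial cells; Technique: immunofluorescence imaging; Dosing: single-point compound dose.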
MLL AF4-AF9 inh – MLL-AF4/AF9 protein interaction inhibition; P42568; AlphaScreen, biotin-AF4 peptide binding to FLAG-AF9; inhibition, % at 10 µM; actives 0.47% (n = 350,000); AID 651704;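 active means every replicate reaching a set inhibition limit, whatever the replicate mean, cut at about 25% in these data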;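 further: 0% = plate neutral control median and 100% = total signal loss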
AlphaScreen intf – counter-screen: AlphaScreen signal interference; shares compounds with MLL AF4-AF9 inh; signal luminescence; AC50, µM (titrated, usually from 12 µM), for the others: top-dose activity change, negative = inhibition; actives 45% (n = 530); cut-off not given, nearly all actives have AC50 up to about 14 µM
* hit, by the source's call; . = not tested or not shown.

Labels used below: A = S100A4 MyoIIA; B = Yeast UUG start; C = ARNT-TACC3 inh; D = ERAP1 inh; E = E-sel inducer; F = MLL AF4-AF9 inh; G = AlphaScreen intf
1	CNC[C@H]1Oc2ccc(NS(=O)(=O)c3ccc(F)cc3)cc2CC(=O)N([C@H](C)CO)C[C@@H]1C
  A: 9 | B: 8 | C: 6 | D: 0 | E: -2 | F: -4 | G: .

2	Fc1cccc(-c2ccc(C3[C@H]4CNC[C@@H]3N4Cc3ccccc3F)cc2)c1 (stereo partly drawn)
  A: 20 | B: . | C: . | D: -2 | E: 0 | F: 2 | G: .

3	C[C@@H]1CN([C@H](C)CO)S(=O)(=O)c2ccc(C#Cc3ccccn3)cc2O[C@H]1CN(C)C(=O)C1CC1
  A: -3 | B: 22 | C: 21 | D: -2 | E: 0 | F: -2 | G: .

4	Cc1ccnc(NC(c2cccnc2)c2ccc3cccnc3c2O)c1 (stereo not drawn)
  A: 3 | B: . | C: 61* | D: 2 | E: -2 | F: 82* | G: 1.5µM*

5	O=C(O)c1ccccc1NC(c1ccccc1)c1ccc2cccnc2c1O (stereo not drawn)
  A: 2 | B: . | C: -23 | D: -2 | E: 0 | F: 12 | G: .

6	Cc1ccnc(NC(c2ccsc2)c2ccc3ccc(C)nc3c2O)c1 (stereo not drawn)
  A: 1 | B: -33 | C: 4 | D: -6 | E: . | F: 55* | G: -13%

7	Cc1ccc2ccc(C(Nc3cccc(C(F)(F)F)c3)c3cccnc3)c(O)c2n1 (stereo not drawn)
  A: 2 | B: -15 | C: 3 | D: 3 | E: 5 | F: 33* | G: -17%

8	COc1ccccc1NC(c1cccnc1)c1ccc2cccnc2c1O (stereo not drawn)
  A: -3 | B: -6 | C: -6 | D: 1 | E: 3 | F: 48* | G: -25%

9	COCC(=O)N1[C@H](C#N)[C@H](c2ccc(C3=CCCCC3)cc2)[C@H]1CO
  A: -42 | B: 15 | C: 11 | D: 0 | E: 4 | F: -10 | G: .

10	C[C@@H]1CCCCO[C@H](CN(C)Cc2ccncc2)[C@@H](C)CN([C@@H](C)CO)C(=O)c2cc(NC(=O)NC3CCCCC3)ccc2O1
  A: 3 | B: 0 | C: -1 | D: -2 | E: 0 | F: -2 | G: .

11	C[C@@H]1NC(=O)N[C@@H]1CCCCCC(=O)O
  A: -3 | B: -16 | C: -4 | D: 0 | E: 0 | F: 90* | G: 1.1µM*

12	C[C@H](NC(=O)C[C@@H]1C[C@@H]2c3cc(NC(=O)NC4CCCCC4)ccc3O[C@@H]2[C@H](CO)O1)c1ccccc1
  A: -19 | B: . | C: 0 | D: -1 | E: 0 | F: -2 | G: .

13	C#CCOCCOCCOCCNc1nc(N2CCN(C(=O)[C@H](CCCN=C(N)N)n3cc(C(N)[C@@H](C)CC)nn3)CC2)nc(N2CCN(C(=O)[C@H](CCCCN)n3cc([C@@H](N)CC(N)=O)nn3)CC2)n1 (stereo partly drawn)
  A: -1 | B: 47 | C: 23 | D: -8 | E: . | F: 37* | G: -13%

14	C#CCOCCOCCOCCNc1nc(N2CCN(C(=O)Cn3cc(CCCN=C(N)N)nn3)CC2)nc(N2CCN(C(=O)[C@H](CCCCN)n3cc(CCCC)nn3)CC2)n1
  A: -15 | B: 7 | C: 9 | D: -8 | E: 0 | F: 15 | G: .

15	C#CCOCCOCCOCCNc1nc(N2CCN(C(=O)[C@H]([C@@H](C)CC)n3cc(CCCN=C(N)N)nn3)CC2)nc(N2CCN(C(=O)[C@H](CCCCN)n3cc(CCCC)nn3)CC2)n1
  A: -1 | B: 14 | C: 23 | D: -13 | E: 0 | F: 29* | G: -11%

16	COc1cccc(C#Cc2ccc([C@@H]3[C@@H](CO)N4C(=O)CN(C(C)=O)C[C@@H]34)cc2)c1
  A: -4 | B: . | C: . | D: -1 | E: 0 | F: -7 | G: .

17	C[C@@H]1CN([C@@H](C)CO)C(=O)Cc2cc(NC(=O)Nc3ccc(C(F)(F)F)cc3)ccc2O[C@H]1CN(C)S(=O)(=O)c1ccccc1
  A: -2 | B: . | C: . | D: 0 | E: 0 | F: 1 | G: .

18	COc1ccccc1N(C(C)=O)C1=C(Cl)C(=O)c2ccccc2C1=O
  A: -2 | B: -48 | C: . | D: 61* | E: 9 | F: 28* | G: 4.4µM*

19	CCN(CC)CCNc1cccc2sc3ccccc3c(=O)c12
  A: -2 | B: 7 | C: . | D: 2 | E: 0 | F: 29* | G: 2.2µM*

Some entries already given, reduced to MLL AF4-AF9 inh and AlphaScreen intf:
cpd	SMILES	MLL AF4-AF9 inh	AlphaScreen intf
16	COc1cccc(C#Cc2ccc([C@@H]3[C@@H](CO)N4C(=O)CN(C(C)=O)C[C@@H]34)cc2)c1	-7	.
17	C[C@@H]1CN([C@@H](C)CO)C(=O)Cc2cc(NC(=O)Nc3ccc(C(F)(F)F)cc3)ccc2O[C@H]1CN(C)S(=O)(=O)c1ccccc1	1	.
